{"source": "ChEMBL document CHEMBL1152301", "about": "“Substitution of aminomethyl at the meta-position enhances the inactivation of O6-alkylguanine-DNA alkyltransferase by O6-benzylguanine” (J Med Chem, 2008)", "key": {"[1]": {"target": "T1, Methylated-DNA--protein-cysteine methyltransferase (Homo sapiens) (UniProt P16455)", "T1 sequence (whole entry)": "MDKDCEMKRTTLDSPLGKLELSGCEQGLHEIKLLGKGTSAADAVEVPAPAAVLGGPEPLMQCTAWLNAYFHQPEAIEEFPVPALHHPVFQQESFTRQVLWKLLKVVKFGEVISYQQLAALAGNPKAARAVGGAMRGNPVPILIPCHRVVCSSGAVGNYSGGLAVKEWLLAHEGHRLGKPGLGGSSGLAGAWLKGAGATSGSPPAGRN"}, "[2]": {"target": "T1, Methylated-DNA--protein-cysteine methyltransferase (Homo sapiens)", "remark": "listed apart in the source"}}}
{"smiles": "Nc1nc(OCc2ccccc2)c2nc[nH]c2n1", "values": [{"measurement": "ED50", "setting": "[1]", "value": 0.3, "unit": "µM"}, {"measurement": "ED50", "setting": "[2]", "value": 0.1, "unit": "µM"}]}
